Data: publication PMC7570544, “Biological Activities and ADMET-Related Properties of Novel Set of Cinnamanilides” (Molecules, 2020)

How the values were obtained:
[1] = Lipophilicity determination by RP-TLC; type: physicochemical; parameters: key to RM (MeOH:H2O): RM = log(1/RF - 1), from RP-18 TLC
Description: RM values were determined from the RP-18 TLC measurements. The solutions of compounds in Metanol Chromasolv^TM (Honeywell) were spotted on a RP-TLC plate (Silica gel Nano-SIL C18-100 UV 254, 10 × 10 cm, Macherey-Nagel, Duren, Germany), 1.5 cm from the edge. The volatiles were carefully evaporated, and the plate was developed by MeOH (100%) or MeOH: H2O-HPLC (72:28 v/v) or MeOH: NaOAc buffer, pH 7.4 (72:28 v/v). After drying, the spots were visualized under UV (λ = 365 nm). RM data were obtained from equation: RM = log(1/RF-1). Each experiment was repeated three times.

[2] = physchem

Q: For `O=C(/C=C/c1ccccc1)Nc1ccccc1` [Compound 1, (2E)-N-Phenyl-3-phenylprop-2-enamide], which “RM (100% MeOH)” value [1] is on record?
A: −0.5087

Q: And the “RM (MeOH:H2O)” value [1]?
A: 0.2848

Q: What about the “RM (pH 7.4)” value ([1]; pH 7.4) of the same compound?
A: 0.4038

Q: And the chromatographic logD ([2]; pH 6.5)?
A: 0.109

Q: And the chromatographic logD ([2]; pH 7.4)?
A: 0.125
